Where a name gives a salt, the structure may show the parent alone.

Amino acid sequences for entries named in this document (tags omitted).
UniProt Q7KRX1, entry or part of it: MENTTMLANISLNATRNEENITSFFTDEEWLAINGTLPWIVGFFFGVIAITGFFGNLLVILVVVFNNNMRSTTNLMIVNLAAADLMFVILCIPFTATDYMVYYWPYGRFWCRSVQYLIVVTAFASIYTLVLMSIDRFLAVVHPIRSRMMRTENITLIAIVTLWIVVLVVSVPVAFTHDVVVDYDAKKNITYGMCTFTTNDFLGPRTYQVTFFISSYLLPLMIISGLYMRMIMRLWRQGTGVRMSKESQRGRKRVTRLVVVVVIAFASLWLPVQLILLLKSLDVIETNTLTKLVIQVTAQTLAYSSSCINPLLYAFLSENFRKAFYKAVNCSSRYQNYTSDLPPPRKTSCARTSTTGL

The assay deals with Drosophila type 2 allatostatin receptor (Dm4) (Drosophila melanogaster, UniProt Q7KRX1). Kind of assay: biochemical.
One may read the IC50 as the point on the concentration scale where inhibition reaches its midpoint. High values mean lower potency, low ones higher potency. In turn, `Nc1cc(N2CCC(c3ccccc3)CC2)nc(N)n1` [Compound 2, 6-(4-phenylpiperidin-1-yl)pyrimidine-2,4-diamine] yielded an IC50 of 790 nM.
`Nc1cc(N2CCC(c3ccccc3)CC2)nc(N)n1` [Compound 3, 6-(4-phenylpiperidin-1-yl)pyrimidine-2,4-diamine hydrochloride] yielded an IC50 of 200 to 400 nM.
Consider `COc1ccc(C2CCN(c3cc(N)nc(N)n3)CC2)cc1` [Compound 4, 6-[4-(4-methoxyphenyl)piperidin-1-yl]pyrimidine-2,4-diamine], for which the midpoint of inhibition, the IC50, lay at 1600 nM.
The compound `COc1cc(N2CCC(c3ccccc3)CC2)nc(OC)n1` [Compound 6, 2,4-dimethoxy-6-(4-phenylpiperidin-1-yl)pyrimidine] yielded an IC50 of 222000 nM.
For the compound `Cc1cc(N2CCC(c3ccccc3)CC2)nc(N)n1` [Compound 8, 4-methyl-6-(4-phenylpiperidin-1-yl)pyrimidin-2-amine], half-maximal inhibition (IC50) required 2640 nM.
